The results in this text go back to patent US20050187288A1, “Beta-lapachone and methods of treating cancer” (priority 2004, published 2005).

The data set in a line: Study 1A: repetitive weekly intravenous toxicity study in rats. Particulars: 45 mg/kg high dose toxicology group.

As to `CC1(C)CCC2=C(O1)c1ccccc1C(=O)C2=O` [β-lapachone, 3,4-dihydro-2,2-dimethyl-2H-naphtho [1,2-b]pyran-5,6-dione], the mortality entry is recorded as “One animal in the 45 mg/kg toxicology high dose group was found dead on Day 3”.
